One assay has as its target dopamine-D2 receptors (Rattus norvegicus, UniProt P61169). The assay can be described thus: In vitro affinity for dopamine-D2 receptors ([3H]-spiroperidol receptor binding assay). The protocol:
In Vitro Affinity for Dopamine-D2 Receptors Affinity of the compounds for dopamine-D2 receptors was determined using the receptor binding assay described by 1. Creese, R. Schneider and S. H. Snyder: “[^3H]-Spiroperidol labels dopamine receptors in rat pituitary and brain”, Eur.J.Pharmacol., 46, 377 - 381, 1977.
(§1) The affinity of the compounds of the invention for dopamine-D2 receptors and serotonine reuptake sites was determined as described above. From the binding affinity measured for a given compound of formula (1), one can estimate a theoretical lowest effective dose. At a concentration of the compound equal to twice the measured Ki-value, 100% of the receptors likely will be occupied by the compound. Converting that concentration to mg of compound per kg of patient yields a theoretical lowest effective dose, assuming ideal bioavailability. Pharmacokinetic, pharmacodynamic, and other considerations may alter the dose actually administered to a higher or lower value. The dosage expediently administered is 0.001-1000 mg/kg, preferably 0.1-100 mg/kg of patient's bodyweight.

The chains behind the UniProt entries cited, without tags or fusion partners.
UniProt P61169, whole entry: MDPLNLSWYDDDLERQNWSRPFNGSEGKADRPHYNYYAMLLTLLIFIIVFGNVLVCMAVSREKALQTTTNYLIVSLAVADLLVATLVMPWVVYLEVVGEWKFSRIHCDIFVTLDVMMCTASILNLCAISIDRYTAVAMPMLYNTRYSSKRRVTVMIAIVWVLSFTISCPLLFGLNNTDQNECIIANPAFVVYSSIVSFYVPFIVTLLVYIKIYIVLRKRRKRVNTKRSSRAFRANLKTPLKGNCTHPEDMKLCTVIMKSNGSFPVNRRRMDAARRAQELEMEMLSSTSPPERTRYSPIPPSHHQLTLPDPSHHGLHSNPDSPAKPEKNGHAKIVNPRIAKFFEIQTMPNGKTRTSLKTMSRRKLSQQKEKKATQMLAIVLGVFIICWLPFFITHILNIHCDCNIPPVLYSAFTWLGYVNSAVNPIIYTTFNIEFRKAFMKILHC
UniProt P31652, whole entry: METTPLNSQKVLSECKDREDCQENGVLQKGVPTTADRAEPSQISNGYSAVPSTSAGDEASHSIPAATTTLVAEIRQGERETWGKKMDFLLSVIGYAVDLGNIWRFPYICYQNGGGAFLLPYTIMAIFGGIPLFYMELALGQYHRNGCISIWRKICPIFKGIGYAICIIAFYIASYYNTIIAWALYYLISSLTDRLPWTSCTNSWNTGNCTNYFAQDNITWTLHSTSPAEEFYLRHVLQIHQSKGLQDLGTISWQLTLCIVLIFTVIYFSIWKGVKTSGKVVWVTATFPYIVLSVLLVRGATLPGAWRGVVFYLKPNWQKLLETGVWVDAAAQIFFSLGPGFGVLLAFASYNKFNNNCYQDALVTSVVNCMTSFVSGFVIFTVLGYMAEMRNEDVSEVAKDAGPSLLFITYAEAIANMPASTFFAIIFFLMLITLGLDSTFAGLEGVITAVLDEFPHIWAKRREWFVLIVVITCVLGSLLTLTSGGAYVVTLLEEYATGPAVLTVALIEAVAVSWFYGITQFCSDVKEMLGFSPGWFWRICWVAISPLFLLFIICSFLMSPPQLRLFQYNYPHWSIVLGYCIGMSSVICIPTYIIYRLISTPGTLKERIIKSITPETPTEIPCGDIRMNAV

For the next assay, the target named is serotonin reuptake sites (Rattus norvegicus, UniProt P31652). Briefly: In vitro affinity for serotonin reuptake sites ([3H]-paroxetine binding assay). The protocol: Affinity of the compounds for serotonin reuptake sites was determined using the receptor binding assay described by E. Habert et al.,: “Characterisation of [^3H]-paroxetine binding to rat cortical membranes”, Eur.J.Pharmacol., 118, 107 - 114, 1985.
as §1

Data on nine compounds can be found in patent publication US20060122177A1.

Read-outs that look alike come from different tables or passages of the source.

For the compound `COc1ccccc1N1CCN(CCCCCCC(=NOCCN)c2ccc(C(F)(F)F)cc2)CC1`, the “Dopamine-D2 pKi” value at dopamine-D2 receptors amounted to 8.3. Moreover, on serotonin reuptake sites, the “5-HT reuptake pKi” value is 8.3.
Regarding `NCCON=C(CCCCN1CCN(c2cccc3ccoc23)CC1)c1ccc(C(F)(F)F)cc1`, the “Dopamine-D2 pKi” value on dopamine-D2 receptors was 6.6. Also, at serotonin reuptake sites, the “5-HT reuptake pKi” value was found to be 8.3.
As to `NCCON=C(CCCCN1CCN(c2cccc3[nH]c(=O)oc23)CC1)c1ccc(C(F)(F)F)cc1`, the “Dopamine-D2 pKi” value on dopamine-D2 receptors worked out at 8.2. The “5-HT reuptake pKi” value on serotonin reuptake sites came to 8.3.
In the case of `CNCCON=C(CCCCN1CCN(c2cccc3c2OCCO3)CC1)c1ccc(C(F)(F)F)cc1`, the “Dopamine-D2 pKi” value on dopamine-D2 receptors (tested form: fumarate) was 8.4. Further, at serotonin reuptake sites (tested form: fumarate), the “5-HT reuptake pKi” value amounted to 7.5.
On the same counts, the results for `NCCON=C(CCCCCCN1CCN(c2cccc3c2OCCO3)CC1)c1ccc(C(F)(F)F)cc1` are 8.4 and 8.5.
On the same counts, the results for `CC(C)Oc1ccccc1N1CCN(CCCC(=NOCCN)c2ccc(C(F)(F)F)cc2)CC1` are 8.1 and 7.0.
Consider `NCCO/N=C(\CCCCN1CCN(c2cccc3c2OCCO3)CC1)c1ccc(C(F)(F)F)cc1`, for which, on dopamine-D2 receptors (tested form: trihydrochloride), the “Dopamine-D2 pKi” value is recorded as 8.3. The “5-HT reuptake pKi” value on serotonin reuptake sites (tested form: trihydrochloride) is reported as 8.2.
On to `COc1ccccc1N1CCN(CCCC(=NOCCN)c2ccc(F)cc2)CC1`, for which, on dopamine-D2 receptors, the “Dopamine-D2 pKi” value was 8.6. The “5-HT reuptake pKi” value at serotonin reuptake sites is on record as 7.3.
In the case of `NCCON=C(CCCCCN1CCN(c2cccc3c2OCCO3)CC1)c1ccc(C(F)(F)F)cc1`, at dopamine-D2 receptors (tested form: fumarate), the “Dopamine-D2 pKi” value is 8.3. In addition, the “5-HT reuptake pKi” value on serotonin reuptake sites (tested form: fumarate) is recorded as 8.0.
